# Screening results from PubChem BioAssay.
# Hits are enriched below; roughly 2.2% of the tested compounds scored in any of these assays.
# Nrf2 activator: activates Nrf2 signaling; AREc32 ARE-luciferase reporter (MCF7-derived line), luminescence, 24 h; Potency, µM (doses to about 46.1 µM), inactives show top-dose activation, most hits filed as activators; actives 0.31% (n = 410,000); also: potency is read from the fitted curve at half-maximal effect; % of control where 0% means no effect; nearly all actives have a fitted effect of over 65% in size
#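 Each well held 1000 AREc32 cells, which were incubated with compound for 24 hr at 37 deg C after overnight attachment, and ARE reporter activity was quantified by firefly luciferase luminescence.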
# miR-21 FLuc: raises the signal of a miR-21 reporter; 340,000 tested, under 10 active; HeLa miR-21 FLuc reporter, luciferase, 48 h; Potency, µM (series often up to 38.3 µM), for inactives: at the highest dose reporter change, positive = more light; active = well fitted rising curve with a large enough effect; inconclusive = small, poorly fitted or top-dose-only effect; inactive = no such curve, though single readings can be large or run the other way;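 further: % of control where 0% means no effect; miR-21 action dims this reporter so a rising signal means less miR-21 action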
#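 Compounds were titrated across several concentrations (up to approximately 40 uM) and incubated 48 hours with HeLa miR-21-FLuc reporter cells (miR-21 target sequence downstream of FLuc, endogenous miR-21). Readout was firefly luciferase luminescence after lytic detection reagent.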
# B2AR arrestin: agonists driving beta-arrestin recruitment to human beta2-adrenergic receptor. P07550. beta-arrestin recruitment to beta2AR, cell-based reporter. Potency, µM (titrated, usually from 46.1 µM), inactives show top-dose activation, usual class: activators. actives 0.02% (n = 330,000);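 also: potency is read from the fitted curve at half-maximal effect; 0% = DMSO controls and full agonism = EC100 isoproterenol or metaproterenol; nearly all actives have a fitted effect of over 65% in size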
# Nrf2 block: Nrf2 pathway inhibition; A549 ARE-Fluc reporter, luciferase luminescence, 18-24 h; Potency, µM (titrated, usually from 46 µM), for the others: top-dose activity change, negative = inhibition, actives largely listed as inhibitors; actives 2.1% (n = 360,000); also: potency is read from the fitted curve at half-maximal effect; % is scaled to controls: 0 for no effect and ±100 for the full control effect; nearly all actives have a fitted effect of over 60% in size
#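 Nrf2 function is reported as luminescence of an ARE-controlled luciferase in A549 cells. Compounds were tested at several concentrations, and a CellTiter-Fluor read on the same wells flagged cytotoxicity.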
# A549 viability: A549 cytotoxicity, counter-screen for Nrf2 inhibitors; Potency, µM (doses to about 46 µM), without a hit: at the highest dose activity change, negative = cytotoxicity, usual class: inhibitors; AID 504648; A549 ARE-Fluc cells, CellTiter-Fluor viability, 18-24 h; actives 0.16% (n = 390,000); also: potency is read from the fitted curve at half-maximal effect; % is scaled to controls: 0 for no effect and ±100 for the full control effect
#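 A549 ARE_Fluc cells in 5% FBS OPTI-MEM were exposed to compounds in concentration-response for 18-24 h at 37 deg C. Viability was read by CellTiter-Fluor fluorescence (Ex 405/Em 525) after 30 min, before the luciferase read.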
# Active calls of the source: *; ? = inconclusive; / = not tested or not shown; [ ] = dose if it differs, or a comment. Unless noted, calls follow the shape of the dose curve; as a rule, active = well fitted curve in the direction sought with a large enough effect; inconclusive = small, poorly fitted or top-dose-only effect, or another doubt; inactive = no such curve, though single readings can be large; an effect the other way counts as inactive or inconclusive.
SMILES,Nrf2 activator,miR-21 FLuc,B2AR arrestin,Nrf2 block,A549 viability
Cc1onc(-c2ccccc2)c1C(=O)N/N=C/c1c[nH]c2ccccc12,8%,2%,0%,15µM*,?
O=C(CNc1ccc(Br)cc1)Nc1ccc(S(=O)(=O)N2CCCC2)cc1,0%,/,0%,-20%,-5%
COc1ccc(NCC(=O)Nc2cccc(S(=O)(=O)N3CCCC3)c2)cc1Cl,1%,/,-1%,18µM*,-21%
O=C(CNc1cccc(S(=O)(=O)N2CCCC2)c1)Nc1cccc(Br)c1,2%,/,0%,21µM*,-23%
O=C(CNc1ccc(Br)cc1)Nc1cccc(S(=O)(=O)N2CCCC2)c1,0%,/,0%,21µM*,?
COc1ccc(Nc2ccc3cc(S(=O)(=O)N4CCCC4)ccc3n2)cc1Cl,4%,8%,/,26µM*,-25%
CC1CC=CC2C1C(=O)N(Cc1ccccc1)C2c1ccc(-c2ccoc2)cc1F (centres undefined),/,/,/,?,1%
O=S(=O)(c1ccc(Cl)cc1)N1CCN(c2nc(Nc3cc(Cl)ccc3O)nc3ccccc23)CC1,/,/,/,0%[27.3 µM],10%[27.3 µM]
CCCC(O)c1nc2ccccc2n1CCCOc1ccc(Cl)cc1 (centres undefined),2%,-28%,/,6%,2%
Cc1cc2oc(=O)cc(Cn3ncc(Cl)c(Cl)c3=O)c2cc1Cl,4µM*,-1%,5%,?,?
COc1ccc(Cl)cc1NC(=O)C(C)n1nnc2sc3c(c2c1=O)CCCC3 (centres undefined),-1%,4%,/,-16%,-4%
COc1ccc(C(=O)NCCc2ccc(Cl)cc2)cc1S(=O)(=O)N1CCCCC1C (centres undefined),0%,/,-1%,16µM*,-7%
COc1ccc(C(=O)NCCc2c[nH]c3ccccc23)cc1S(=O)(=O)N1CCCCC1C (centres undefined),2%,/,0%,-17%,-12%
O=C(CCCSc1nc2ccccc2s1)NCc1ccco1,24%,-18%,0%,5%,-9%
O=C(CSc1nc2ccccc2s1)N/N=C/c1ccco1,5µM*,-8%,0%,-2%,-1%
C/C(=N\NC(=O)CSc1nc2ccccc2s1)c1ccco1,7.1µM*,-6%,0%,8%,19%
CC(=O)CSc1nc2ccccc2s1,3%,-35%,3%,?,12%
N#C/C(=C\c1ccco1)Sc1nc2ccccc2s1,11µM*,-29%,0%,23%,-3%
CCc1ccc(OCCCn2c(CCNC(=O)C3CCCCC3)nc3ccccc32)cc1,/,/,/,7%,3%
O=C(O)CCSc1nnc(-c2ccc3c(c2)OCO3)o1,-2%,?,0%,8.2µM*,6%

# Among those listed so far, these contain bromine.
SMILES,Nrf2 activator,miR-21 FLuc,B2AR arrestin,Nrf2 block,A549 viability
O=C(CNc1ccc(Br)cc1)Nc1ccc(S(=O)(=O)N2CCCC2)cc1,0%,/,0%,-20%,-5%
O=C(CNc1cccc(S(=O)(=O)N2CCCC2)c1)Nc1cccc(Br)c1,2%,/,0%,21µM*,-23%
O=C(CNc1ccc(Br)cc1)Nc1cccc(S(=O)(=O)N2CCCC2)c1,0%,/,0%,21µM*,?

# Next entries follow:
SMILES,Nrf2 activator,miR-21 FLuc,B2AR arrestin,Nrf2 block,A549 viability
CC(C)CC(=O)NC(NC(=S)Nc1cccc2cccnc12)C(Cl)(Cl)Cl (centres undefined),7%,21%,0%,21µM*,-21%
Cc1ccc(NC(=S)NC(NC(=O)c2ccccc2)C(Cl)(Cl)Cl)c(C)c1 (centres undefined),3%,?,?,21µM*,?
Cc1cc(C)c(NC(=S)NC(NC(=O)c2ccccc2)C(Cl)(Cl)Cl)c(C)c1 (centres undefined),7%,?,?,?,-13%
Cc1ccc(-c2nc3ccccc3n3c(C)nnc23)cc1,/,-5%,0%,/,/
Cc1ccc(-c2nnc3c(C(F)(F)F)nc4ccccc4n23)cc1,0%,-11%,0%,23µM*,?
FC(F)(F)c1nnc2c(Sc3ccc(Cl)cc3)nc3ccccc3n12,2%,-2%,3%,?,-21%
FC(F)(F)c1nc2ccccc2n2c(-c3ccc(Cl)cc3)nnc12,-2%,-4%,-1%,/,5.8µM*
Nc1nc(NCc2ccc(Cl)cc2)c2[nH]cnc2n1,/,/,/,5%,14%
CC1(C)CC(=O)c2cc(N=C/C(C(=O)c3ccccc3)=C(\O)c3ccccc3)c(=O)oc2C1,11µM*,-43%,0%,11%,2%
CCCC1C2CN(C(C)C)CC=C2C(C#N)=C(N)C1(C#N)C#N (centres undefined),1%,0%,0%,6.5µM*,?
CN1CC=C2C(C#N)=C(N)C(C#N)(C#N)C(CCc3ccccc3)C2C1 (centres undefined),4%,0%,0%,-5%,1%
N#Cc1ccc(N2CCN(S(=O)(=O)c3ccc4c(c3)CC(=O)N4)CC2)cc1,/,/,/,7%,15%
Cc1ccc(N2CCN(S(=O)(=O)c3ccc(Cl)s3)CC2C)cc1 (centres undefined),0%,5%,1%,13µM*,-4%
COc1cc2ncnc(N(C)Cc3cccs3)c2cc1-c1ccc2c(c1)OCO2,/,/,/,-10%,8%
COc1ccc(Br)cc1C1NC(c2ccc3c(c2)OCO3)=CC(c2cc(Cl)ccc2O)N1 (centres undefined),/,/,/,-15%,-2%
O=c1[nH]c(/C=C/c2cccc3ccccc23)nc2ccccc12,7%,-31%,0%,-28%,2%
O=c1[nH]c(/C=C/c2ccccc2[N+](=O)[O-])nc2ccccc12,1.3µM*,-11%,0%,5%,7%
COc1cc(CNC(=O)c2ccc3c(c2)c(C)c(C)n3Cc2cccc(C)c2)cc(OC)c1OC,9%,15%,/,-5%,0%
N#CC1=C(N)Oc2c(ccc3ccccc23)C1c1ccsc1 (centres undefined),8.9µM*,-12%,0%,?,?
N#CC1=C(N)Oc2c(oc(CO)cc2=O)C1c1ccsc1 (centres undefined),0%,-1%,0%,9%,16%

# Sorted by the number under miR-21 FLuc (descending): some entries from above
Compound | miR-21 FLuc
COc1cc(CNC(=O)c2ccc3c(c2)c(C)c(C)n3Cc2cccc(C)c2)cc(OC)c1OC | 15%
FC(F)(F)c1nc2ccccc2n2c(-c3ccc(Cl)cc3)nnc12 | -4%
O=c1[nH]c(/C=C/c2ccccc2[N+](=O)[O-])nc2ccccc12 | -11%
N#CC1=C(N)Oc2c(ccc3ccccc23)C1c1ccsc1 (centres undefined) | -12%

# Remaining list, next part
SMILES,Nrf2 activator,miR-21 FLuc,B2AR arrestin,Nrf2 block,A549 viability
COc1cccc(-c2noc(-c3cc4ccccc4oc3=O)n2)c1OC,11µM*,-16%,/,?,1%
Cn1cncc1CNc1ncnc2ccc(-c3ccc4c(c3)OCO4)cc12,/,/,/,6%,13%
O=c1c2[nH]c3ccsc3c2cnn1Cc1ccccc1F,/,/,/,3%,9%
Nc1ncnc2c1nc(Cl)n2[C@@H]1O[C@H](CO)[C@@H](O)[C@@H]1O,/,/,/,21µM*,-14%
CN(C)c1nc2c(N)ncnc2n1C1OC(CO)C(O)C1O (centres undefined),0%,/,/,14%,-2%
COc1cc(F)c(S(=O)(=O)N2CCN(S(=O)(=O)c3cccc(N)c3)CC2)c(F)c1,/,/,/,0%,2%
C/C(=C\C(=O)c1ccncc1)Nc1ccccc1O,14µM*,-5%,0%,16%,-9%
COc1ccc(OC)c(N/C(C)=C/C(=O)c2ccncc2)c1,0%,-3%,-1%,-8%,-16%
CCc1ccccc1N(C)C(=O)c1nn(-c2ccc(OC)cc2)c(=O)c2c1c1ccccc1n2C,5%,6%,/,4%,-3%
COc1cccc(/C=N/NC(=O)c2cc3cc([N+](=O)[O-])ccc3s2)c1O,0%,23%,-2%,15µM*,?
